Assay results from US5849915A (priority 1996, dated 1998).

Experiments:
Type in all cases: in vivo
[1] = Hot plate test for measuring analgesia in mice; conditions: s.c.
[2] = Acetic acid writhing test for measuring analgesia in mice; conditions: male mice 18~22g, s.c.; 0.6% acetic acid i.p.; limits: (I)b 6.63~18.51, buprenorphine 4.67~10.29
[3] = Anti-morphine experiments in the hot plate test in mice; conditions: morphine 24 mg/kg s.c. 15 min before compound s.c.

## CO[C@]12CC[C@@]3(C[C@@H]1[C@](C)(O)C1CC1)[C@H]1Cc4ccc(O)c5c4[C@@]3(CCN1CC1CC1)[C@H]2O5
[1]
  analgesic action in the hot plate test (in words): failed to produce analgesia in the hot plate test
[2]
  ED50 (95% confidence limits) in the acetic acid writhing test: 0.01108 mg/kg
[3]
  anti-Mor effect (in words): antagonised Mor analgesia
[3]; printed limits 345.68~456.50
  AD50 (95% confidence limits), dosage required to inhibit Mor analgesia by 50%: 0.39724 mg/kg
